Literature values, collected in patent US5788964A, “Method for sensitization of cancer cells for killer cell mediated lysis” (Orion-Yhtyma Oy, priority 1996, dated 1998).

Tested on: NK and LAK cells
Conditions: 2×10^6 Japan reference units s.c. initially, halved each consecutive day for 6 days; cited from earlier work

## IL-2: Cytokines, such as interleukin-2 (IL-2)
  activation of NK and LAK cells: significant activation of NK and LAK cells
